# Yeast mating assay B: variants of the scFv Ab-14

The measurements come from Li et al. 2023 (doi:10.1038/s41467-023-39022-2) through the FLAb antibody collection.

The target is the same throughout: PDVDLGDISGINAS, from the HR2 region of SARS-CoV-2 spike.

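The starting antibody came from a phage panning campaign against this peptide. Designed CDR sequences, proposed from the first random library and measured here. Their group label is 14L_En_Gibbs (En: ensemble of fine-tuned language models; Gibbs: Gibbs sampling). AlphaSeq pools MATa yeast showing the antibodies with MATalpha yeast showing the peptide. Binding brings cells together so that they mate, and sequencing counts the barcode pairs among the diploids. Read counts were normalised to the haploid input and turned into Kd by a linear fit to BCL2-family pairs of known affinity, for each replicate. There are six technical replicates.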

Parent: Ab-14, a human scFv built as VH, a 15-residue (Gly4Ser)3 linker, VL. Only the CDRs of the light chain vary.
VH: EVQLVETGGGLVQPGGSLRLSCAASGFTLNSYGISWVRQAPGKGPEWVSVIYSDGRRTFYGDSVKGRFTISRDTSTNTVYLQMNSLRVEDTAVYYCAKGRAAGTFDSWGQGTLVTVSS
VL: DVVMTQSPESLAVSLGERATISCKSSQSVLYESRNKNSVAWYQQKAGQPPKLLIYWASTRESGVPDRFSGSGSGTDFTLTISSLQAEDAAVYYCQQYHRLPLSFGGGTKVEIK

Each variant is given by its three light chain CDRs, as the data file delimits them; those of the parent are KSSQSVLYESRNKNSVA, WASTRES, QQYHRLPLS. Affinities are written as log10 Kd with Kd in nM; a lower number is a better binder. A pair that was not seen in that replicate is written "ND"; this usually means weak binding, but a binder can also be missed. The parent sequence was in this pool as ten entries: three were never detected, three once, and four in most replicates, with averages from 0.34 to 2.37. Three control strains display no target. For all light chain designs, 4% of the pairings with them gave a signal, with a median of 2.64 and one signal in twenty below 1.59, so weak values seen in few replicates may be background. The control count says in how many pairings with the empty strains this scFv gave a signal, with their mean in brackets. The range of this assay differs from that of the first round, and the authors advise against merging the two. The authors averaged sequences with at least three values out of six and counted those with two or fewer as poor binders.

| # | CDR-L1 | CDR-L2 | CDR-L3 | log10 Kd (nM) by replicate | control signals |
|---|---|---|---|---|---|
| 1 | KIDGQTSYDAGRERAIA | DVTIRFW | QQYARLPLL | 0.52 ND 0.64 1.44 0.90 ND | 0 of 18 |
| 2 | GVDHTMYSAQQAPNSIA | NAEQTNI | QQYQRLPLS | 0.46 0.98 0.28 1.26 0.60 0.47 | 0 of 18 |
| 3 | KLQNFSQNYNDIWNSIA | DESMKHT | QHYDRLPLV | 3.02 2.32 2.19 2.43 2.91 2.36 | 2 of 18 (3.09) |
| 4 | NIVEDEAGDQKNSQNIA | SVDQRED | QQYQKLPLM | 0.00 -0.24 -0.12 -0.24 -0.38 0.06 | 0 of 18 |
| 5 | NVRLNEGEIDMHWYNIA | SVDIRAD | QQYSRLPLF | 0.16 0.05 0.09 -0.11 0.08 0.26 | 3 of 18 (3.04) |
| 6 | KIERSTKGDRYFQYSIA | QGDIREK | QQYGQLPLT | 1.34 ND ND ND ND 1.54 | 0 of 18 |
| 7 | SLYENYANGSQHTNAVA | DANQMMR | QHYNRLPLA | 1.54 ND ND 1.59 0.77 1.26 | 0 of 18 |
| 8 | KLSNWQFDSYGAKESVA | ENEAVSN | QQYSLLPLS | ND ND 1.76 1.26 ND ND | 0 of 18 |
| 9 | QFQFEDVQYGVNEQAIA | EENQRMQ | QQYFRLPLI | 0.99 1.24 1.06 0.77 0.80 0.71 | 2 of 18 (2.58) |
| 10 | RVSSELMAGEIHYNAIA | NTKVLEY | QQYMRLPLG | 0.08 -0.21 -0.13 -0.19 -0.15 -0.05 | 0 of 18 |
| 11 | VMQMDRLGQGQYQNNIA | NQDLRTA | QQYYMLPLV | 0.71 0.70 0.64 0.50 0.84 0.85 | 1 of 18 (2.77) |
| 12 | HLKDMPGQGPQTYSSIA | HAEIREP | QQYYRLPLM | 0.95 1.15 0.75 0.49 0.88 1.08 | 1 of 18 (2.66) |
| 13 | KLSLSLGESKQSERNIA | NMRVSVA | QQYDTLPLT | 1.10 1.06 1.90 2.55 0.92 1.21 | 0 of 18 |
| 14 | KLDMNELHQSQNKNCVA | DSAQKCS | QQYSRLPLS | 0.40 0.30 0.27 0.13 0.11 0.24 | 3 of 18 (3.10) |
| 15 | VLAMESYGKSRHESNIA | GANMLAQ | QQYARLPFA | -0.25 -0.32 -0.21 0.73 -0.09 -0.14 | 0 of 18 |
| 16 | KINGVLINFGEDWNAIA | QENLSNL | QQYFHLPLS | ND ND ND ND ND ND | 0 of 18 |
| 17 | FMEMDFQENSGNHNSIA | SEEVKTR | QHYGRLPLS | ND ND ND ND ND ND | 0 of 18 |
| 18 | ILNDTPMEQQIHMDAIA | QEAIRNA | QQYARLPLS | 1.08 0.92 0.66 0.85 0.58 1.12 | 3 of 18 (2.48) |
| 19 | QLSHYKHENMGKWQNVA | EMTIREK | QQYAHLPLN | 0.71 1.42 0.94 0.91 1.23 1.82 | 0 of 18 |
| 20 | KVQNHSSGTLNDKNAVA | EDKEVAV | QQYVRLPLI | ND ND ND ND 2.36 ND | 0 of 18 |
| 21 | SLREMILDWDNKMGNVA | DMHMREQ | QQYFRLPIM | 0.62 0.61 0.49 0.34 0.66 0.53 | 3 of 18 (2.37) |
| 22 | SLYENYANPSQHTNSVA | DANQMMR | QHYNRLPLA | 1.12 0.40 0.77 -0.12 1.47 0.20 | 1 of 18 (2.21) |
| 23 | KITSHIREGTADNNAMA | NADVSHD | QQYSRLPLF | 1.10 1.23 0.59 0.88 1.40 1.11 | 3 of 18 (2.00) |
| 24 | KFANQLVYMNQGQNAIA | DVTNKSA | QQYLRLPLM | 0.43 0.28 0.74 0.99 1.08 1.01 | 1 of 18 (1.99) |
| 25 | HIDQYTSYDNGENRAIA | DVTIKDY | QQYARLPLL | 0.81 1.17 0.77 0.98 0.65 0.96 | 1 of 18 (2.62) |
| 26 | MVNGHTVHQANRDNNIA | EAQMVAA | QDYHRLPLI | 0.48 1.55 1.57 0.89 1.01 1.51 | 0 of 18 |
| 27 | KLGEQERMNGMANQNVA | AMNTRVD | QEYHRLPLI | 0.37 0.43 0.14 0.00 0.18 0.39 | 3 of 18 (2.85) |
| 28 | HIDTANRGEDMKQDPIA | QADIREQ | QQYFQLPLI | 1.09 1.09 1.43 1.02 1.28 1.07 | 1 of 18 (2.94) |
| 29 | QIDHPELTFQQNQYSIA | NASQSLD | QQYAQLPLM | ND 1.01 0.64 1.22 0.38 1.36 | 1 of 18 (2.28) |
| 30 | KIKELFAMWARAQGNVA | DATQRCT | QQYSRLPIT | 0.68 0.11 0.56 0.40 -0.04 0.82 | 0 of 18 |
| 31 | SVQVYTENFMERGQNIA | DVSAKTV | QQYHRLPLA | 0.71 -0.07 -0.11 0.67 0.83 0.72 | 0 of 18 |
| 32 | TIDDEEPSEGLKWNSIA | GVATRLQ | QQYHRLPLI | 0.57 0.97 0.31 0.53 0.61 0.81 | 0 of 18 |
| 33 | TLGYQPTEMRDNKHAVA | DDEQRTR | QQYMRLPLS | -0.04 -0.28 -0.42 -0.56 -0.04 -0.12 | 0 of 18 |
| 34 | QLEVFPLQGGSTTQSIA | DASHRTP | QQYSRLPLV | -0.17 -0.34 -0.49 -0.59 -0.58 -0.32 | 0 of 18 |
| 35 | NISTQIPEFEMWDNNIA | GATLRPT | QHYARLPLS | 1.71 1.32 1.88 2.21 3.49 1.98 | 1 of 18 (2.60) |
| 36 | HVAMLLGQQHGKQANVA | EADELMT | QQYYTLPLA | 0.37 0.31 -0.15 0.23 0.28 0.33 | 0 of 18 |
| 37 | KLSSHEQHGTAQNSAMA | NATVSTQ | QQYSRLPLS | -0.45 -0.25 -0.17 -0.23 -0.35 0.00 | 0 of 18 |
| 38 | KLMNQMGGIQQMKNSIA | NLEIGAR | QQYAHLPLV | ND ND ND ND ND ND | 1 of 18 (2.50) |
| 39 | QLQIEPNGYMGMRSNVA | DGVMVRM | QQYARLPLM | 0.17 0.40 0.21 0.12 0.35 0.73 | 0 of 18 |
| 40 | SLYEAMQTGGLRTSNIA | DVNQQMR | QHYMRLPLA | 0.91 0.89 0.67 0.62 1.02 0.64 | 1 of 18 (2.60) |
| 41 | SLTSHEEEIEGAEASVA | EASMLES | QQYHRLPLM | 0.76 0.79 0.76 0.76 1.23 1.24 | 2 of 18 (2.83) |
| 42 | KITDDFLTEGNGRQNIA | HNNVALD | QQYQQLPLA | 0.33 0.72 0.38 0.35 0.20 0.78 | 0 of 18 |
| 43 | KLTDYMQHSIAMDNSIA | QTNIYHE | QQYGRLPLV | 1.81 1.07 1.49 0.97 1.12 1.67 | 3 of 18 (2.47) |
| 44 | KLSDNQELQYNKGQSVA | EASEVCI | QQFYRLPLV | 1.94 1.61 1.47 ND 2.25 1.24 | 0 of 18 |
| 45 | KLRREADGWNRNEWNIA | DADHRGA | QQYSHLPLC | 2.02 1.83 2.14 1.64 2.37 2.00 | 2 of 18 (3.20) |